miR-122 sensor – miR-122 inhibition in Huh7 cells; Huh7 miR-122 Renilla luciferase sensor, 48 h; neutral wells = 0, positive control = 100; activation (reporter increase), % at 12.5 µM; 340,000 compounds, 0.3% hits; AID 602342;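 active means mean replicate activation score at least 90 and every replicate individually at or above 90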;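 further: higher luciferase means less miR-122 activity so hits act as miR-122 inhibitors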
MITF TRPM1 HTS – activators of MITF-driven TRPM1 promoter activity in SK-MEL-5 cells | 300,000 compounds, 0.75% hits | AID 588334 | activation, % at 12.5 µM | SK-MEL-5 TRPM1-promoter luciferase, 24 h; % of positive control, neutral wells = 0;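 active means mean activation of at least 80% with every replicate also reaching 80%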;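 further: 0% = neutral control wells and 100% = parthenolide positive control wells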
PGC1a acetyl inh – lowers PGC1a acetylation signal in U2OS cells | AlphaScreen anti-acetyl-lysine; with virally co-expressed GCN5 acetyltransferase | inhibition, % at 15.6 µM | 350,000 compounds, 0.17% hits | AID 651687;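 active means every replicate shows inhibition of at least 40%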;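 further: 0% = neutral control wells and 100% = positive control wells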
UUG fidelity – yeast start codon fidelity modulation | S. cerevisiae UUG-firefly luciferase reporter, luminescence/redox ratio | activity score, % at 18.7 µM | 350,000 tested, 0.13% active;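 active = replicate mean at a twofold rise or more, about +100% in these data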;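 also: firefly luciferase made from a UUG start codon reports start codon fidelity; reporter light over untreated wells divided by growth signal over untreated wells; some hits fall short of that in this replicate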
Wnt act – activates Wnt/beta-catenin signaling in a reporter cell assay; 300,000 compounds, 1.2% hits; activator, plate reader; activation, % at 9.35 µM; in the data active means activation above about 30%, passing the limit was not always enough;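 further: 0% = neutral control wells and 100% = positive control wells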
TRPM1 prom inh – inhibitors of MITF-driven TRPM1 promoter in melanoma cells; inhibition, % at 12.5 µM; SK-MEL-5 TRPM1 promoter luciferase, 24 h; AID 488899; 330,000 compounds, 0.83% hits;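 active means mean inhibition across replicates of 60% or more, whatever share of single replicates reaches that level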
Active calls of the source: *; . = not tested or not shown; [ ] = dose if it differs, or a comment. Sampled rows, rich in hits. Any-hit rate of the full collection: about 2.1%.

No. | canonical_smiles | miR-122 sensor | MITF TRPM1 HTS | PGC1a acetyl inh | UUG fidelity | Wnt act | TRPM1 prom inh
1 | O=C(Nc1ccc(N=Nc2ccccc2)cc1)c1ccc(Cl)cc1Cl | -2 | 17 | 0 | -18 | . | -15
2 | COc1ccc(CN2C(=O)c3cccc4cccc(c34)C2=O)cc1 | 2 | -3 | 0 | -4 | 41* | 1
3 | CCCC(=O)Nc1ccc2c(c1)C(=O)N(C)[C@H]1CC[C@@H](CC(=O)NCCN3CCCCC3)O[C@H]1CO2 | -33[16.7 µM] | . | 7 | 9 | . | .
4 | Fc1cccc(CSc2ccc(-c3ccco3)nn2)c1 | -2 | 38 | -2 | 5 | 30* | -37
5 | Fc1ccc(CSc2ccc(-c3ccco3)nn2)cc1 | -19 | 55 | . | -18 | 20 | -54
6 | Cc1ccc(NC(=O)Nc2nnc(Cc3ccc([N+](=O)[O-])cc3)s2)cc1 | -3 | 57 | -6 | -12 | 8 | -49
7 | O=C(Nc1ccc(Cl)cc1)Nc1nnc(Cc2ccc([N+](=O)[O-])cc2)s1 | . | -3 | . | . | 48* | 5
8 | CCCN1C[C@@H](C)[C@H](OC)CN(C)C(=O)c2cc(NC(=O)Nc3c(C)noc3C)ccc2OC[C@H]1C | . | . | 4 | -6 | . | .
9 | CCCC(=O)C1=C(O)C(C(=O)OC)C(C)(C)CC1=Nc1ccc(OC)cc1 (stereo not given) | . | -6 | 46* | . | -1 | 8
10 | C/C(=N\OC(=O)NC(C)C)c1sc(-c2ccccc2)nc1C | 5 | 105* | -5 | -10 | -2 | -91
11 | C/C(=N\OC(=O)NC(C)C)c1sc(-c2ccc(Cl)cc2)nc1C | -1 | 62 | -3 | -17 | -5 | -58
12 | C#CCOCCOCCOCCNc1nc(N2CCN(C(=O)CCCCCCCCCCNC(=O)Cn3cc(CCCCCN)nn3)CC2)nc(N2CCN(C(=O)CCCCCCCCCCNC(=O)Cn3cc(C[C@@H](C)O)nn3)CC2)n1 | 4 | 4 | -23 | 0 | . | -6
13 | C#CCOCCOCCOCCNc1nc(N2CCOCC2)nc(N2CCN(C(=O)CCCCCCCCCCNC(=O)[C@H]([C@@H](C)CC)n3cc(CCCCN=C(N)N)nn3)CC2)n1 | . | 3 | . | -7 | -2 | -2
14 | Cc1cn([C@@H](CCCCNC(=O)OC(C)(C)C)C(=O)NCCCCCCCCCCC(=O)N2CCN(C(=O)OC(C)(C)C)CC2)nn1 | -5 | -63 | 0 | -11 | . | 65*
15 | C#CCOCCOCCOCCNc1nc(N2CCN(C(=O)CCCCCCCCCCNC(=O)[C@H]([C@@H](C)CC)n3cc(CCCCN=C(N)N)nn3)CC2)nc(N2CCN(C(=O)CCCCCCCCCCNC(=O)[C@@H]([C@H](C)O)n3cc(C)nn3)CC2)n1 | -5 | -66 | -21 | 8 | . | 65*
16 | C#CCOCCOCCOCCNc1nc(N2CCN(C(=O)CCCCCCCCCCNC(=O)[C@H](CCCCN)n3cc(C[C@@H](C)CC)nn3)CC2)nc(N2CCN(C(=O)CCCCCCCCCCNC(=O)[C@@H]([C@H](C)O)n3cc(C)nn3)CC2)n1 | . | -93 | . | -9 | . | 94*
17 | CC[C@H](C)Cc1cn([C@@H](CCCN=C(NC(=O)OC(C)(C)C)NC(=O)OC(C)(C)C)C(=O)NCCCCCCCCCCC(=O)N2CCN(C(=O)OC(C)(C)C)CC2)nn1 | 18 | -21 | 8 | 2 | . | 16
18 | C#CCOCCOCCOCCNc1nc(N2CCN(C(=O)CCCCCCCCCCNC(=O)Cn3cc(C[C@@H](C)O)nn3)CC2)nc(N2CCN(C(=O)CCCCCCCCCCNC(=O)[C@@H]([C@H](C)CC)n3cc(CCCCCN)nn3)CC2)n1 | . | -97 | . | -5 | . | 99*
19 | C#CCOCCOCCOCCNc1nc(N2CCN(C(=O)CCCCCCCCCCNC(=O)[C@H](CCCCN)n3cc(C[C@@H](C)CC)nn3)CC2)nc(N2CCN(C(=O)CCCCCCCCCCNC(=O)[C@H](CCCN=C(N)N)n3cc(C[C@@H](C)CC)nn3)CC2)n1 | . | -103 | . | -13 | . | 104*
20 | C#CCOCCOCCOCCNc1nc(N2CCN(C(=O)CCCCCCCCCCNC(=O)[C@@H](CCSC)n3cc(CCO)nn3)CC2)nc(N2CCN(C(=O)CCCCCCCCCCNC(=O)[C@H](CCCN=C(N)N)n3cc(C[C@@H](C)CC)nn3)CC2)n1 | . | -66 | . | -7 | . | 69*
21 | C#CCOCCOCCOCCNc1nc(N2CCN(C(=O)CCCCCCCCCCNC(=O)Cn3cc(C[C@@H](C)O)nn3)CC2)nc(N2CCN(C(=O)CCCCCCCCCCNC(=O)[C@@H](CCSC)n3cc(CCO)nn3)CC2)n1 | . | -77 | . | -11 | . | 79*
22 | C#CCOCCOCCOCCNc1nc(N2CCN(C(=O)CCCCCCCCCCNC(=O)[C@@H](CCC(=O)O)n3cc(CCCCCN)nn3)CC2)nc(N2CCN(C(=O)CCCCCCCCCCNC(=O)[C@H](CCCCN)n3cc(C[C@@H](C)CC)nn3)CC2)n1 | 0 | -35 | -14 | 16 | . | 36
23 | C[C@H](O)C#Cc1cnc2c(c1)C(=O)N([C@H](C)CO)C[C@@H](C)[C@H](CN(C)C(=O)Cc1ccccn1)O2 | 3[16.7 µM] | . | 0 | -5 | . | .
24 | COCCNC(=O)C[C@@H]1CC[C@@H]2[C@H](COc3ccc(NC(=O)c4cnccn4)cc3C(=O)N2C)O1 | 15[16.7 µM] | . | -3 | -13 | . | .
25 | Clc1ccc(Cl)c2sc(N3CCOCC3)nc12 | 1 | 3 | 3 | -7 | . | -3
26 | Clc1cc(Cl)c2nc(N3CCOCC3)sc2c1 | 2 | . | -14 | -11 | 42* | -37
27 | O=C(CN1CCOCC1)N[C@@H]1CC[C@H](CCNC(=O)Nc2cc(F)ccc2F)O[C@@H]1CO | . | . | -14 | -3 | . | .
28 | O=C(C[C@@H]1CC[C@H](NC(=O)C2CC2)[C@H](CO)O1)Nc1nccs1 | . | . | -12 | -17 | . | .
29 | Cc1ccc(N2CCN(C(=O)c3cn(CC4CCCCC4)nn3)C(C)C2)cc1 (stereo not given) | -2 | 70 | -1 | 6 | 40* | -64
30 | CNC(=O)C[C@H]1CC[C@H]2[C@@H](COc3ccc(NC(=O)CC(F)(F)F)cc3C(=O)N2C)O1 | 20[16.7 µM] | . | -4 | 11 | . | .
31 | COc1ccc(/C(N)=N/OC(=O)c2cccs2)cc1 | . | 61 | . | . | 40* | -45
32 | N/C(=N\OC(=O)c1cccs1)c1ccc(Cl)cc1 | -1 | . | 18 | -22 | 57* | .
33 | COc1ccc(/C(N)=N/OC(=O)c2ccc(Br)o2)cc1 | 5 | 61 | 13 | -48 | 0 | -56
34 | CC(C)NC(=O)N(C)C[C@@H]1Oc2ccc(NS(=O)(=O)c3ccc(Cl)cc3)cc2CC(=O)N([C@H](C)CO)C[C@H]1C | 2[16.7 µM] | . | 4 | -7 | . | .
35 | COCC#Cc1cnc2c(c1)C(=O)N([C@H](C)CO)C[C@H](C)[C@@H](CN(C)S(C)(=O)=O)O2 | 0[16.7 µM] | . | -1 | . | . | .
36 | C=C1C(=O)C=C[C@]2(C)C[C@@H]3OC(=O)[C@](C)(O)[C@H]3C[C@@H]12 | 18 | -93 | -178 | -2 | 43* | .
37 | C[C@@H]1C[C@@H]2OC(=O)[C@]3(C)[C@H]2[C@@H](OC3(C)O)[C@]2(C)C(=O)C=C[C@H]12 (stereo not given in full) | . | 4 | . | -8 | 11 | 0

Some of the entries so far, with values under each structure.
The line under a structure holds: miR-122 sensor | MITF TRPM1 HTS | PGC1a acetyl inh | UUG fidelity | Wnt act | TRPM1 prom inh
28) O=C(C[C@@H]1CC[C@H](NC(=O)C2CC2)[C@H](CO)O1)Nc1nccs1
  . | . | -12 | -17 | . | .
29) Cc1ccc(N2CCN(C(=O)c3cn(CC4CCCCC4)nn3)C(C)C2)cc1 (stereo not given)
  -2 | 70 | -1 | 6 | 40* | -64
30) CNC(=O)C[C@H]1CC[C@H]2[C@@H](COc3ccc(NC(=O)CC(F)(F)F)cc3C(=O)N2C)O1
  20[16.7 µM] | . | -4 | 11 | . | .
